Experimental findings from US20260234099A1, “Endocannabinoid ligands and related analogs” (Northeastern University, priority 2023, published 2026) are described below.

The chains behind the UniProt entries cited, without tags or fusion partners.
UniProt P20272, whole entry: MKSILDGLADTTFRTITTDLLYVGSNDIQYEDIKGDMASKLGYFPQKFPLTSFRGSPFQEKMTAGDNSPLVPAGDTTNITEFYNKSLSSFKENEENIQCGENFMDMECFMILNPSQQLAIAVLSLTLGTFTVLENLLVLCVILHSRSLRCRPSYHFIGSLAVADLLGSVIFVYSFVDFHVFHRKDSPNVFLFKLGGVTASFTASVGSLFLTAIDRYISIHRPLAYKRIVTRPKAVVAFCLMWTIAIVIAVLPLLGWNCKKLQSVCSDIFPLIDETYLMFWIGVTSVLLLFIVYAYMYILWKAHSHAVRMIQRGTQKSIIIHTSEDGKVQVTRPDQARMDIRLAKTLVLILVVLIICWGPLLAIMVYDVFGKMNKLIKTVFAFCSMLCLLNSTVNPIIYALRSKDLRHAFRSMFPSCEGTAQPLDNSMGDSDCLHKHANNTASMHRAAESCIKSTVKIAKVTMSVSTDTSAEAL

One assay addresses CB1 receptor (rCB1) (Rattus norvegicus, UniProt P20272). Put plainly: cAMP assay (inhibition of FSK stimulated cAMP), CB1. The format is cell-based. Particulars: class symbols. The procedure:
FIG. 1A is a graph providing data of the % inhibition of FSK stimulated cAMP for compound 5.4.3d for rCB1.
Further functional characterization of some of the disclosed compounds tested initially for “binding affinity” or for GTPγ-S binding was performed by using the cyclic adenosine monophosphate (cAMP) assay. Key compounds initially characterized functionally using the GTPγ-S assay were also doubly tested using the cAMP assay to unambiguously confirm their functional profiles. The functional potency of the compounds tested using the cyclase assay is also represented by the EC50 (cAMP) value and similarly the lower the EC50 (cAMP) value the higher the potency of the compound for the receptor. A detailed description of the methods used to test compounds using the cAMP assay is given in Yingpeng, et al. J. Med. Chem. (2018) 61, 8639-8657 the content of which is hereby incorporated by reference. The EC50 values (potency of a test compound) of the functional assays may or may not be accompanied by the E(max) value in tables 1-5 (efficacy of the test compound). E(max)/efficacy is the maximum GTP stimulation or cAMP inhibition levels and is presented as the percentage of maximum response evoked by a standard CB1/CB2 full agonist (e.g., CP-55,940) for reference see the paper cited above. […]
A general note: Changes in cAMP serve as a functional read-out for many G protein-coupled receptors.

The target in another assay is CB1 receptor (Rattus norvegicus, UniProt P20272). Put plainly: GTPγ-S binding assay, CB1. The format is biochemical. Conditions: class symbols; read-out: EC50 (GTP) CB1 receptor. The procedure:
The activity of some of the disclosed compounds for the CB1 and CB2 receptors was assessed by using the GTPγ-S binding assay (Tables 2,3,4). As used herein the “effect” of the compound on the GTPγ-S assay is represented by the EC50 (GTP) value. The lower the EC50 (GTP) value the higher the potency of the compound for the receptor A detailed description of the methods used to test compounds using the GTPγ-S assay is given in Parkkari, et al., Biorg. Med. Chem. Letters 2006, 16(9), 2437 and Griffin, et al., J. Pharmacol. Exp. Ther. 1998, 285(2), 553-560 the content of which is hereby incorporated by reference.
A general note: GTPγS is a poorly hydrolysed GTP analogue; its binding reports G protein activation.

A word on the EC50: it is the concentration at which the effect is half-maximal. Consider `CCCCC/C=C\C/C=C\C/C=C\C/C=C\CCCC(=O)OC(CO)CO` [Compound 2-AG, 2-arachidonoylglycerol, reference compound], for which the figures for the half-maximal effective concentration (EC50) on CB1 receptor (rCB1) and on CB1 receptor were 10 to 200 nM and 200 to 1000 nM, respectively.
